Common to all, as to assay: BLI; biotinylated BCL2 homolog (25 nM) immobilised on streptavidin biosensors, designed protein in solution at defined concentrations; Octet RED96; 10 mM HEPES pH 7.4, 150 mM NaCl, 3 mM EDTA, 0.05% surfactant P20, 0.5% non-fat dry milk; titrations in triplicate, 1:1 binding model
What all share (details): both partners purified

The chains behind the UniProt entries cited, without tags or fusion partners. Where a name states a change or a piece, a line headed by the entry shows the natural chain unless it says otherwise. Residues count along the entry.
UniProt P10415: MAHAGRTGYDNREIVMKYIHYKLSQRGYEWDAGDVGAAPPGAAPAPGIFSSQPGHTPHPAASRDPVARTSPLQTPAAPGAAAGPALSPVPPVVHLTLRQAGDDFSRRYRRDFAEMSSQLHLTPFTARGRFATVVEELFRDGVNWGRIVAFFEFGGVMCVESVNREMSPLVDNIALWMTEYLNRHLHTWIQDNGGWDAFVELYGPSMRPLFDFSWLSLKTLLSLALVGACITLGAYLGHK
UniProt Q07820, 172-327: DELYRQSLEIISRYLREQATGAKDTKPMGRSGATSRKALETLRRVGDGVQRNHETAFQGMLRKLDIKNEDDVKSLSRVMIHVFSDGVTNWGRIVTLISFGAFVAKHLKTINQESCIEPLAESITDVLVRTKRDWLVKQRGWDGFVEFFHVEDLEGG
UniProt Q07817, 1-209: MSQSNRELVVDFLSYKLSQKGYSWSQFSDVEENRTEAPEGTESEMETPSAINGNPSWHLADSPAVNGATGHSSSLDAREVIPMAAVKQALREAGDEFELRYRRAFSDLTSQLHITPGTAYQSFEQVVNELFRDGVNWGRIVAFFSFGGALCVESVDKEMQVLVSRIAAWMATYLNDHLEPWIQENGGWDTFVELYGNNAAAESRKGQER

One assay concerns the target T1, Bfl-1 (human, UniProt Q16548 1-175, biotin (enzymatic, BirA)).
T1 construct: Bfl-1, human pro-survival BCL2 homolog; not shown: avi, C-terminal, kept
T1 sequence (looked up): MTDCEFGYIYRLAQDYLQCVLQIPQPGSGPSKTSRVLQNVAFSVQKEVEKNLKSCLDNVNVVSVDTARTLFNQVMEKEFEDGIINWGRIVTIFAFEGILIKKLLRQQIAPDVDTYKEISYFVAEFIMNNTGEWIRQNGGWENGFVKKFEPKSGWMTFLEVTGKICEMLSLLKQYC

For a further assay, the target named is T2, Bcl-2 (human, UniProt P10415 1-239, biotin (enzymatic, BirA)).
T2 construct: Bcl-2, human pro-survival BCL2 homolog; not shown: avi, C-terminal, kept

Another assay concerns the target Mcl-1 (human, UniProt Q07820 1-350, biotin (enzymatic, BirA)).
Another assay deals with T3, Bcl-w (human, UniProt Q92843 1-193, biotin (enzymatic, BirA)).
T3 construct: Bcl-w, human pro-survival BCL2 homolog; not shown: avi, C-terminal, kept
T3 sequence (looked up): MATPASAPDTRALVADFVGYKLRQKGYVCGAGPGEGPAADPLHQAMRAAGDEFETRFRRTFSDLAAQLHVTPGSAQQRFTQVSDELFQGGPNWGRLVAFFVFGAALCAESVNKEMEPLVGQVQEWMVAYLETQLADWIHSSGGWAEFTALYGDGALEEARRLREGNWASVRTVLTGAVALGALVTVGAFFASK

The target in a further assay is Bcl-xL (human, UniProt Q07817-1 1-233, biotin (enzymatic, BirA)).

Several values for one entry are separate records, joined by “and”; a condition that tells them apart may be missing. Equal entries are not always repeated.

B1: F-ECM04 (designed binder)
chain: ADPKKVLDKAKDQAENRVRELKQKLEELYKEARKLDLTQEMRKKLEVAALGAVLAAHGDILNAIMQAKEEADKLKKAGLVNSQQLDELKRRLEELKEEALRKASDYGKEFHLKRRY
Take B1: the kon in the assay with Bfl-1 was 98700 M⁻¹ s⁻¹ and 112000 M⁻¹ s⁻¹ and 148000 M⁻¹ s⁻¹; with Bcl-2, 106000 M⁻¹ s⁻¹ (2×) and 96400 M⁻¹ s⁻¹; with Bcl-w, 21500 M⁻¹ s⁻¹ and 20900 M⁻¹ s⁻¹ and 27800 M⁻¹ s⁻¹; with Bcl-xL, 190000 M⁻¹ s⁻¹ and 191000 M⁻¹ s⁻¹ and 201000 M⁻¹ s⁻¹. For the same molecule, the koff with Bcl-2 was 0.01 s⁻¹ and 0.0105 s⁻¹; with Mcl-1, 0.0615 s⁻¹ (2×) and 0.0733 s⁻¹; with Bcl-w, 0.0858 s⁻¹ and 0.0865 s⁻¹ and 0.0884 s⁻¹; with Bcl-xL, 0.0957 s⁻¹ and 0.106 s⁻¹ and 0.111 s⁻¹ and 0.104 s⁻¹. Also, the Kd with Bcl-w is 3.99 µM and 4.14 µM and 3.19 µM.

One may read the kon as a measure of how fast the partners come together. High values mean faster complex formation, low ones slower complex formation. As usually defined, the koff is a measure of how fast the partners let go of each other. Low values mean a long-lived complex, high ones a short-lived complex. As usually defined, the Kd is a measure of binding affinity in units of concentration. A low value points to higher affinity.

(Values after publication PMC5127641 (eLife, 2016).)
